Apparent affinities of Ab-14 variants for a coronavirus HR2 peptide

All variants were tested on one target, the spike HR2 peptide PDVDLGDISGINAS (SARS-CoV-2).

Parent scFv Ab-14: VH joined to VL by the linker GGGGSGGGGSGGGGS. Changes lie in the heavy chain CDRs alone.
VH: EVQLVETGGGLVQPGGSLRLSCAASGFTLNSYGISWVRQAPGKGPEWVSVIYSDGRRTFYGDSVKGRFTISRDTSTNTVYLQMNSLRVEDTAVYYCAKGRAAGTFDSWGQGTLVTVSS
VL: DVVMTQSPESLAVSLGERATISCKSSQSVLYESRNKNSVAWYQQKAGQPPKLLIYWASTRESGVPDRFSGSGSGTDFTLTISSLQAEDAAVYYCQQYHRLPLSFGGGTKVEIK

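This is the validation round: designs drawn from the data on random variants, tested in the same kind of assay. Their group label is 14H_GP_HC (GP: Gaussian process model; HC: hill climbing; a sequence that several methods proposed may carry one label only). The scFvs were displayed on barcoded MATa yeast, the peptide on MATalpha yeast. Mating (16 h, 30 °C) was followed by selection of diploids and sequencing of their barcodes. A regression on co-assayed BCL2-family reference pairs converts the normalised counts of each replicate to an apparent Kd. Each pool was mated in six replicate cultures.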

Each variant is given by its three heavy chain CDRs, as the data file delimits them; those of the parent are GFTLNSYGIS, VIYSDGRRTFYGDSVK, GRAAGTFDS. Scale: log10 of Kd in nM, estimated from mating counts; low values are strong binders. The mean shown is taken over the replicates in which the pair was detected. Where no diploid with the target was found in that replicate, the entry reads "nd": below detection, most likely a poor binder, though not proof of it. Background: pairings of all heavy chain designs with three empty control strains gave a value in 1% of cases (median 2.08, 5th percentile 0.84). Values in that range, when seen in few replicates, are hard to tell from nonspecific mating. Also given: how often the same scFv was detected with the empty control strains, with their mean in brackets. Values of this round are not directly comparable with the first-round values of the same sequences. The parent sequence was in this pool as ten entries: three were never detected, three once, and four in most replicates, with averages from 0.34 to 2.37. The authors averaged sequences with at least three values out of six and counted those with two or fewer as poor binders.

| CDR-H1 | CDR-H2 | CDR-H3 | replicates, log10 nM | mean log10 Kd (nM) | signal with controls |
|---|---|---|---|---|---|
| GFVLNDYGIS | VIYSDGRRTWYGDSVK | GRAAGTFDS | nd nd nd nd nd 3.11 | 3.11 | 0/18 |
| GFNLNSYGIS | VIYSDGRRTFYTDSVK | GQLAGTFDS | 0.83 0.25 0.85 0.42 1.02 1.08 | 0.74 | 0/18 |
| GFTLNEYGIS | VIYSDGRRTFYTDSVK | GRTAGTFVS | 1.84 nd 1.81 nd nd nd | 1.83 | 0/18 |
| GFDLNSYGIS | VIYSDGRRTFYGDSVK | GRAAWTFDQ | nd nd nd nd nd nd | nd | 0/18 |
| GFDLNSYGIS | VIYSDGRRTFYIDSVK | GRAAGTFNV | nd nd nd nd nd nd | nd | 0/18 |
| GFSLNSYGIS | VIYADGRRTFYGDSVK | GRAADTFDS | nd nd nd nd nd nd | nd | 0/18 |
| GFTLDSYGIS | VIYSDGRRTFYGDSVK | GRAAGTFVR | nd nd nd nd nd nd | nd | 0/18 |
| GFFLNDYGIS | VIYSDGRRTFYSDSVK | GTAAGTFDS | 0.49 0.67 0.87 0.22 0.70 0.82 | 0.63 | 0/18 |
| GFTLDSYGIS | VIYSDGRRTFYSDSVK | GQLAGTFDS | 0.17 0.37 0.21 -0.03 -0.43 0.37 | 0.11 | 0/18 |
| GFGLNEYGIS | VIYSDGRRTFYTDSVK | GKAAGTFDS | 0.17 -0.10 0.15 0.12 0.37 0.25 | 0.16 | 0/18 |
| GFQLNSYGIS | VIYSDGRRTFYDDSVK | GRAAGTFDS | nd 0.81 nd 0.14 1.39 nd | 0.78 | 0/18 |
| GFDLNSYGIS | VIYSDGRRTFYGDSVK | GRHAGTFNS | nd nd nd nd nd nd | nd | 0/18 |
| GFTLNEYGIS | VIYSDGRRTFYQDSVK | GRAAVTFDK | nd nd nd nd nd nd | nd | 0/18 |
| GFDLNDYGIS | VIYSDGRRTMYGDSVK | GRAAGTFDS | 1.23 0.52 0.98 0.88 0.59 0.54 | 0.79 | 0/18 |
| SFTLNEYGIS | VIYSDGRRTFYMDSVK | GRTAGTFDS | nd 0.53 0.76 1.13 nd nd | 0.80 | 0/18 |
| GFTLNSYGIS | VIYSDGRRTFYTDDVK | GEAAGTFES | nd 2.27 1.65 1.37 2.53 2.32 | 2.03 | 0/18 |
| GFQLNEYGIS | VIYSDGRRTFYSDSVK | GHAAGTFDS | 0.37 0.50 0.51 0.63 0.67 0.24 | 0.49 | 0/18 |
| GFTLNDYGIS | VIYSDGRRTWYGDSVK | GREAGTFDS | -0.16 -0.21 -0.84 -0.99 -0.93 -0.39 | -0.59 | 1/18 (-0.27) |
| GFTLNEYGIS | VIYSDGQRTFYGDSVK | GRTAGTFIS | nd nd nd nd nd nd | nd | 0/18 |
| GFHLNDYGIS | VIYSDGRRTFYGDSVK | GRLAGTFDS | 1.59 0.83 1.23 1.54 0.98 0.80 | 1.16 | 1/18 (2.06) |
| GFTLNSYGIS | VIYSDGRRTFYSDSVK | GSVVGTFDS | nd nd nd nd nd nd | nd | 0/18 |
| GFDLNSYGIS | VIYSDGCRTFYTDSVK | GRAAVTFDS | nd nd nd nd nd nd | nd | 0/18 |
| GFQLNSYGIS | VIYSDGRRTFYADSVK | GHAGGTFDS | nd 2.53 1.78 nd nd nd | 2.16 | 0/18 |
| SFTLNEYGIS | VIYSDGRRTFYTDSVK | GRFAGTFDS | nd nd nd nd nd nd | nd | 1/18 (2.20) |
| GFWLNDYGIS | VIYADGRRTFYGDSVK | GKAAGTFDS | 0.08 0.02 0.18 0.19 -0.27 0.33 | 0.09 | 0/18 |
| GFSLNEYGIS | VIYSDGRRTFYKDSVK | GRNAGTFDS | -0.49 -0.71 -0.39 -0.60 -0.60 -0.06 | -0.47 | 0/18 |
| GFTLNSYGIS | VIYADGRRTFYGDSVK | GRLAGTFCI | 0.27 -0.54 -0.55 -0.56 -0.41 -0.45 | -0.37 | 0/18 |
| GFWLNEYGIS | VIYSDGRRTFYHDSVK | GRAAGTFDC | nd nd nd nd nd nd | nd | 0/18 |
| GFSLNDYGIS | VIYSDGRRTFYGDSVK | GKAAGTFIS | 1.74 nd nd nd nd nd | 1.74 | 1/18 (2.01) |
| GFALNSYGIS | VIYSDGRRTFYSDSVK | GQLAGTFDS | 0.22 0.46 -0.03 0.59 0.45 0.11 | 0.30 | 1/18 (1.93) |
| GFTLNSYGIS | VIYSDGRRTFYSDSVK | GNAAGKFDT | nd nd nd nd nd nd | nd | 0/18 |
| GFTLNEYGIS | VIYSDGRRTFYSDSVK | GRGAGTFDS | 0.85 0.86 1.44 1.08 1.79 1.03 | 1.17 | 0/18 |
| GFGLNQYGIS | VIYSDGRRTAYQDSVK | GRAAGTFDS | 1.00 0.70 0.45 0.47 1.06 0.40 | 0.68 | 0/18 |
| GFDLNSYGIS | VIYSDGRRTFYGDSVK | GRTAGQFNS | nd 2.34 nd nd nd 1.77 | 2.06 | 0/18 |
| GFTLNSYGIS | VIYSDGMRTFYSDSVK | GNTAGTFDS | 0.12 -0.16 -0.08 -0.29 -0.21 0.18 | -0.07 | 1/18 (2.44) |
| GFTLNDYGIS | VIYSDGRRTMYGDSVK | GRVAGTFDS | 0.34 0.52 -0.02 -0.11 0.03 0.33 | 0.18 | 0/18 |
| GFDLNSYGIS | VIYSDGRRTFYGDSVK | GRAAGRFNS | nd nd nd nd nd nd | nd | 0/18 |
| GFTLNMYGIS | VIYSDGRRTMYIDSVK | GRAAGTFDS | nd 1.35 nd nd 1.82 nd | 1.59 | 0/18 |
| GFTLNSYGIS | VIYSDGKRTFYSDSVK | GRAVGTFDS | 1.00 0.77 nd 0.64 0.54 1.53 | 0.89 | 0/18 |
| GNTLNEYGIS | VIYSDGRRTFYTDSVK | GRAAGTFDS | nd 1.53 nd 1.84 1.37 1.02 | 1.44 | 0/18 |
| GFTLNSYGIS | VIYSDGRRTFYSDSVK | GVAGGTFDI | nd 1.53 nd nd nd nd | 1.53 | 0/18 |
| GFHLNDYGIS | VIYSDGRRTFYGDSVK | GKAAGTFDS | 1.47 0.84 1.58 0.50 1.45 1.24 | 1.18 | 0/18 |
| GFELNEYGIS | VIYSDGRRTFYADSVK | GRDAGTFDS | 0.72 0.45 0.44 0.56 0.15 0.65 | 0.49 | 0/18 |

The closing 5 entries, repeated:

CDR-H1	CDR-H2	CDR-H3	replicates, log10 nM	mean log10 Kd (nM)	signal with controls
GFTLNSYGIS	VIYSDGKRTFYSDSVK	GRAVGTFDS	1.00 0.77 nd 0.64 0.54 1.53	0.89	0/18
GNTLNEYGIS	VIYSDGRRTFYTDSVK	GRAAGTFDS	nd 1.53 nd 1.84 1.37 1.02	1.44	0/18
GFTLNSYGIS	VIYSDGRRTFYSDSVK	GVAGGTFDI	nd 1.53 nd nd nd nd	1.53	0/18
GFHLNDYGIS	VIYSDGRRTFYGDSVK	GKAAGTFDS	1.47 0.84 1.58 0.50 1.45 1.24	1.18	0/18
GFELNEYGIS	VIYSDGRRTFYADSVK	GRDAGTFDS	0.72 0.45 0.44 0.56 0.15 0.65	0.49	0/18

The measurements come from Li et al. 2023 (doi:10.1038/s41467-023-39022-2) through the FLAb antibody collection.